AlphaSeq binding of Ab-95 light chain variants to a spike HR2 peptide

All variants were tested on one target, the spike HR2 peptide PDVDLGDISGINAS (SARS-CoV-2).

Ab-95 is the parent antibody, in scFv form: VH, then the linker GGGGSGGGGSGGGGS, then VL. The heavy chain is unchanged in all variants.
VH: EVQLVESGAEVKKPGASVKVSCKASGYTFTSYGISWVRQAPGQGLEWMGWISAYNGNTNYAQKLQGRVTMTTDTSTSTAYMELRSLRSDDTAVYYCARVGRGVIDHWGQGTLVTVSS
VL: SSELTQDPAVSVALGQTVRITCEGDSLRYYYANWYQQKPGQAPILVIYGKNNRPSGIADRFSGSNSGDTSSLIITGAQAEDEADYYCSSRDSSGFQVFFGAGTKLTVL

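The starting antibody came from a phage panning campaign against this peptide. AAYL52 was designed without a model: most single CDR substitutions and a random sample of double and triple ones. In AlphaSeq, yeast of one mating type display the scFv and yeast of the other type display the target. After mating in shaken culture at 30 °C for 16 h, diploids were selected and their barcode pairs sequenced. Each replicate has its own calibration line, from reference interactions of the BCL2 family. There are three technical replicates.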

Sequences are complete VL domains. Every variant below is changed at N33 of the VL (sequential numbering). The Kd shown is the geometric mean over detected replicates; a lower Kd is a better binder. Where no diploid with the target was found in any replicate, the entry reads "no signal": below detection, most likely a poor binder, though not proof of it. Order: sorted from the lowest average up, undetected variants last. Empty control strains, which show no peptide, gave a signal in 28% of pairings with library AAYL52; the median was 8.2 µM and 95% of these signals were weaker than 800 nM. No background was subtracted. For each scFv, signals with the empty controls are counted beside the result. Parent in this assay: reference entry 200 nM, copy in this library 180 nM.

VL,Kd,replicates with signal,signal with controls
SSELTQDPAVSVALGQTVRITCEGDSLRYYYASWYQQKPGQAPILVIYGKNNRPSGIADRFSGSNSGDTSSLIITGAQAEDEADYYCSSRDSSGFQVFFGAGTKLTVL,46 nM,3/3,5/9
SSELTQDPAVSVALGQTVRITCEGDSLLYYTALWYQQKPGQAPILVIYGKNNRPSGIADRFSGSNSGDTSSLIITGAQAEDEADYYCSSRDSSGFQVFFGAGTKLTVL,500 nM,3/3,3/9
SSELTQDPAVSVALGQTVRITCEGDSLRYYYAMWYQQKPGQAPILVIYGKNNRESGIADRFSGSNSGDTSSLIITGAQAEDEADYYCSSRYSSGFQVFFGAGTKLTVL,630 nM,1/3,1/9
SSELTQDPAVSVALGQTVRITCEGDSLRYYYAQWYQQKPGQAPILVIYGTNNRPSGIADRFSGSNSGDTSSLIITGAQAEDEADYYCSSRDSSGFQVHFGAGTKLTVL,1.5 µM,1/3,3/9
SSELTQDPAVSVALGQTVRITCSGDSLRYYYIYWYQQKPGQAPILVIYGKNNRPSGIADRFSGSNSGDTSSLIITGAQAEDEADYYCSSRDSSGFQVFFGAGTKLTVL,1.8 µM,1/3,1/9
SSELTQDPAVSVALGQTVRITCEGDSLRYPYATWYQQKPGQAPILVIYGKQNRPSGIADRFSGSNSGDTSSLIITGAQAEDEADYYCSSRDSSGFQVFFGAGTKLTVL,2.3 µM,3/3,3/9
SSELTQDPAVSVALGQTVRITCEGDSLRYYYAHWYQQKPGQAPILVIYGKNNRPSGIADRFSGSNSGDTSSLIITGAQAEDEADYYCSSRNSSGFQVIFGAGTKLTVL,3.3 µM,1/3,2/9
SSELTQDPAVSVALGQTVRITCEGDSLRYYYAHWYQQKPGQAPILVIYGKNNRPSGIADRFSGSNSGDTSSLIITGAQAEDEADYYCRSRDSSGFQCFFGAGTKLTVL,5.2 µM,2/3,5/9
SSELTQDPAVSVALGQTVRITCEGDSHRYYYYAWYQQKPGQAPILVIYGKNNRPSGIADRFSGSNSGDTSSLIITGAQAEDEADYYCSSRDSSGFQVFFGAGTKLTVL,5.2 µM,1/3,2/9
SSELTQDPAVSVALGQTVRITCEGASLRYYYWIWYQQKPGQAPILVIYGKNNRPSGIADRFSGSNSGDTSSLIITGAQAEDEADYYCSSRDSSGFQVFFGAGTKLTVL,8.1 µM,1/3,1/9
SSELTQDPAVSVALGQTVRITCEGDSLNYYYAEWYQQKPGQAPILVIYGKNNRPSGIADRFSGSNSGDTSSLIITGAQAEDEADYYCSSRDSSGFQVTFGAGTKLTVL,8.1 µM,1/3,4/9
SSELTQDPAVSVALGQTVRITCEGDSLRYDYAHWYQQKPGQAPILVIYGKNNRPSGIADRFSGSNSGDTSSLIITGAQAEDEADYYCSSTDSSGFQVFFGAGTKLTVL,12 µM,2/3,1/9
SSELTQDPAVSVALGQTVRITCEGDSLRYYYAAWYQQKPGQAPILVIYGKNNRPSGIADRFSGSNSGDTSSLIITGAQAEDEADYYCGSRDSSGFCVFFGAGTKLTVL,13 µM,2/3,1/9
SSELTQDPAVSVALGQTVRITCEGDSLRYYYWEWYQQKPGQAPILVIYGKNNRPSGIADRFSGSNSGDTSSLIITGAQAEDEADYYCSFRDSSGFQVFFGAGTKLTVL,16 µM,1/3,4/9
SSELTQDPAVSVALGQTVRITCEGDSLRYYYASWYQQKPGQAPILVIYGKNNRPSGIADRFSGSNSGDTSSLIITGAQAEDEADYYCESRDSVGFQVFFGAGTKLTVL,19 µM,1/3,0/9
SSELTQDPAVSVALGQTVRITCEGDSLRYYSACWYQQKPGQAPILVIYGKNHRPSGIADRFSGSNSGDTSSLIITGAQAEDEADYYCSSRDSSGFQVFFGAGTKLTVL,20 µM,2/3,5/9
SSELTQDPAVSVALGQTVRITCEGRSLRYYYATWYQQKPGQAPILVIYGKNNRMSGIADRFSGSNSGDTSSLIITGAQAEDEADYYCSSRDSSGFQVFFGAGTKLTVL,24 µM,3/3,3/9
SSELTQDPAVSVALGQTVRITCESDSLRWYYAAWYQQKPGQAPILVIYGKNNRPSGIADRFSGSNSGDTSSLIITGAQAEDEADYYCSSRDSSGFQVFFGAGTKLTVL,27 µM,3/3,4/9
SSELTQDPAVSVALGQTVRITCEGDSLRYYYAPWYQQKPGQAPILVIYRKNNRPSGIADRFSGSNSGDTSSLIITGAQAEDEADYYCSSRDSSGFQFFFGAGTKLTVL,37 µM,1/3,1/9
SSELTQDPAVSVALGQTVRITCEGDSLRYYYAKWYQQKPGQAPILVIYGKNNRPSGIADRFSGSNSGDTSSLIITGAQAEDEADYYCSQRDSSFFQVFFGAGTKLTVL,260 µM,2/3,4/9
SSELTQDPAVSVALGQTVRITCEGDSLRYYYAKWYQQKPGQAPILVIYGKNNRPSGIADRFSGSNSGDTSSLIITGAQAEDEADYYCRSADSSGFQVFFGAGTKLTVL,360 µM,1/3,5/9
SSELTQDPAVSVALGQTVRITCEGDSLRYYYAEWYQQKPGQAPILVIYGKNNRPSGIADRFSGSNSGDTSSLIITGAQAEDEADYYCSSFDWSGFQVFFGAGTKLTVL,no signal,0/3,4/9
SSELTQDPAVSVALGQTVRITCEGDSLRYYYASWYQQKPGQAPILVIYGKNNRPSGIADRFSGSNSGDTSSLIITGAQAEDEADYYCSSRDSKGFQVFFGAGTKLTVL,no signal,0/3,5/9
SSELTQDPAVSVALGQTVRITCEGDSLRYYYAMWYQQKPGQAPILVIYDKNNRESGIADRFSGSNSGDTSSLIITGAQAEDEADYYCSSRDSSGFQVFFGAGTKLTVL,no signal,0/3,2/9

3 of these entries, quoted again:

VL,Kd,replicates with signal,signal with controls
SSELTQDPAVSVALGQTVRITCEGDSLRYYSACWYQQKPGQAPILVIYGKNHRPSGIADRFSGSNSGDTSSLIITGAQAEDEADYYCSSRDSSGFQVFFGAGTKLTVL,20 µM,2/3,5/9
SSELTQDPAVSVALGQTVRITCEGDSLRYYYASWYQQKPGQAPILVIYGKNNRPSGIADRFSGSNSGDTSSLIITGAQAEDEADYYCESRDSVGFQVFFGAGTKLTVL,19 µM,1/3,0/9
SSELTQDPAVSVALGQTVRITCEGDSLRYPYATWYQQKPGQAPILVIYGKQNRPSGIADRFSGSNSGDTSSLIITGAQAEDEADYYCSSRDSSGFQVFFGAGTKLTVL,2.3 µM,3/3,3/9

From the AlphaSeq antibody data of Engelhart et al. 2022 (doi:10.1038/s41597-022-01779-4), copy in the FLAb collection.